For one experiment, the target named is MAP4K1 (HPK1) (Homo sapiens (Human), UniProt Q92918). The experiment in a line: MAP4K1 (HPK1) biochemical enzymatic activity, electrophoretic mobility shift (EZReader 2), ATP at APPKM (26 μM). From the text:
MAP4K1 (HPK1) and relevant off-target enzymatic activity was monitored using the Perkin Elmer electrophoretic mobility shift technology platform—the EZReader 2. […] Within the linear, steady-state phase of the kinase enzymatic reaction, the mixed pool of phosphorylated (product) and non-phosphorylated (substrate) peptides was passed through the microfluidic system of the PerkinElmer EZ Reader 2, under an applied electric potential difference. The presence of the phosphate group on the product peptide provided a difference in mass and charge between that of the substrate peptide, resulting in a separation of the substrate and product pools in the sample (Perrin et al. 2010). As the product and substrate peptide mixture passes the lasers within the instrument, these pools are detected (λex=488 nm, λent=568 nm) and resolved as separate peaks. The ratio between these peaks reflects the activity of the compound at that concentration, in that well, under those conditions.
Inhibitors were dissolved in 100% DMSO at a stock concentration of 10 mM. A 100×, 10-point, 4-fold serial dilution of each inhibitor was created in 100% DMSO either manually or on a Hamilton STAR liquid handler, starting at a relevant concentration, usually 1 mM. A volume of 0.130 μL of each concentration was transferred to the relevant wells of a 384-well plate (Greiner 781 201) in duplicate using a TTPLabtech Mosquito nano-litre dispenser. Using a Multidrop Combi, the remaining constituents of the kinase reaction were added to the 130 nL of dosed compound as follows (see table below for final reaction details):
Enzyme activity assays at the ^APPKM for ATP or 1 mM ATP: In each well of a 384-well plate, 0.1-15 nM of untreated enzyme was incubated in a total of 13 μL of buffer (100 mM HEPES pH 7.5, 0.015% Brij 35, 10 mM MgCl2, 1 mM DTT) with 1.5 μM fluorescent peptid and 20-1000 μM ATP, at 25° C., for 60-180 minutes in the presence or absence of a dosed concentration series of compound (1% DMSO final concentration). The kinase reactions were stopped by the addition of 70 μl of Stop buffer (100 mM HEPES pH 7.5, 0.015% Brij 35, 35 mM EDTA and 0.2% of Coating Reagent 3 (Caliper Lifesciences)). The plates were read on a Caliper EZReader 2 as described above.
For orientation: A gel shift assay detects complexes by their altered migration in electrophoresis.

Amino acid sequences for entries named in this document (tags omitted).
UniProt Q92918, whole entry: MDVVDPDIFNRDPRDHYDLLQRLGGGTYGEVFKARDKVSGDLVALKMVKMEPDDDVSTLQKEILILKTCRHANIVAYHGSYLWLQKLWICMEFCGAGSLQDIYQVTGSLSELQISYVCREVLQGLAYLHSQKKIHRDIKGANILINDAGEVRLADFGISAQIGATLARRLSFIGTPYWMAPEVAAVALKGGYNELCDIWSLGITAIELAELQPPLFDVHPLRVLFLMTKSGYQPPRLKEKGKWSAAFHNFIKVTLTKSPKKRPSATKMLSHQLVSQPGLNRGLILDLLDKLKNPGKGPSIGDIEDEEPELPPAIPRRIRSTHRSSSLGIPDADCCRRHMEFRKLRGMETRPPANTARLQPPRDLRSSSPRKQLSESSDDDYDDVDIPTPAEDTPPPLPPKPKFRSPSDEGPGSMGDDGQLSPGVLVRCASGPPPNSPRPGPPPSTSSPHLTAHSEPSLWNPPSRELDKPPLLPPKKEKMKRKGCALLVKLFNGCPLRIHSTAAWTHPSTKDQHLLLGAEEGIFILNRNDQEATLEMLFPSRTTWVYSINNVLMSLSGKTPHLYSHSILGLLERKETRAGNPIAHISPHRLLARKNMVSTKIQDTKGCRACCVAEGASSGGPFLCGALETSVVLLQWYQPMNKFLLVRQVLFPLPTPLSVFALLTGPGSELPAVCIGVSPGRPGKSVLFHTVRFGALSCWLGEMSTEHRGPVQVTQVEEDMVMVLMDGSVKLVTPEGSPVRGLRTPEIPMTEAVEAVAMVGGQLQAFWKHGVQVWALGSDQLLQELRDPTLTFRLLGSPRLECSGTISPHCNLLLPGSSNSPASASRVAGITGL

Another experiment deals with expanded CD3+ T cells. The experiment in a line: T cell enhancement of cytokines: IL2 measurement (HTRF) in expanded CD3+ T cells stimulated with anti-CD3/anti-CD28. As to conditions: read-out: IL-2 EC50, IL-2 measurement. The procedure: T cells are isolated from whole blood of healthy donors by immunomagnetic negative selection following manufacture's protocol (StemCell Technologies, human T cell isolation kit). Purity of isolated cells is assessed by flow cytometry and yields 95-98% CD3^+ T cells. For expansion of T cells, 1×10^6 cells/well are plated in serum free cell expansion media (ThermoFisher) containing 30 U of recombinant human IL2 (R&D) and stimulated with 25 ul of CD3/CD28 beads (Invitrogen) in 24 well plates for 3-4 days. T cells are then expanded in 175 cm flasks and maintained at a cell density of 1 to 2.5×10^6 cells/ml days by addition of ⅔ of fresh media every 2-3 days. After 10-14 days, cells are frozen in BamBanker freezing media (Thermo) and stored in liquid nitrogen.
For IL2 measurement, expanded CD3^+ T cells are dispensed at 100K cells/well (cultured in X-VIVO 10 Serum-free media) and are stimulated with plate-bound anti-CD3 and soluble anti-CD28 in the presence of vehicle or compound of the disclosure at various concentrations for 24 h. As outlined in the manufacturer's protocol (Cisbio), 16 μL of conditioned media is transferred to a white 384-well low volume plate. Following a 24 h incubation with the anti-IL2 antibodies, the homogenous time resolved fluorescence (HTRF) is measured.
For orientation: TR-FRET usually uses a lanthanide donor and a delayed reading to cut background.

The mark [1] stands for this setting: read-out: MAP4K1 IC50, class designation.
The mark [2] stands for this setting: read-out: MAP4K1 IC50, numeric value.

Like-named read-outs stand apart in the source and are kept apart here. A value given as a limit tells only on which side of the number the result lay.

Experimental findings from patent US11534441B2, “MAP4K1 inhibitors” (Blueprint Medicines Corporation, priority 2020, dated 2022) are described below.

A word on the IC50: it is the point on the concentration scale where inhibition reaches its midpoint. In general, EC50 refers to the midpoint of the concentration-response curve.

Regarding `COc1ncc(C(C)(N)C2CC2)c2cc(Nc3ccc4c(n3)[C@@H](C)[C@H](C)OC4=O)ncc12` (single isomer, unassigned) [100], the IC50 on MAP4K1 (HPK1) (setting [1]) was 1.1 to 10 nM; at MAP4K1 (HPK1) (setting [2]), 2.6 nM.

`COc1ncc(C(C)(N)C2CC2)c2cc(Nc3ccc4c(n3)[C@@H](C)[C@H](C)OC4=O)ncc12` (single isomer, unassigned) [99]: the IC50 was below 0.3 nM at MAP4K1 (HPK1) (setting [1]) and 0.13 nM at MAP4K1 (HPK1) (setting [2]).

Take `CC[C@@](C)(N)c1cnc(NC2CC2)c2cnc(Nc3ccc4c(n3)[C@@H](C)[C@H](C)OC4=O)cc12`: the IC50 at MAP4K1 (HPK1) (setting [1]) was 0.31 to 1 nM.

As to `CNc1ncc(C(C)(C)N)c2cc(Nc3ccc4c(n3)CCCC4=O)ncc12`, the IC50 on MAP4K1 (HPK1) (setting [1]) was 0.31 to 1 nM. For the same compound, the EC50 with expanded CD3+ T cells (class designation) is below 35 nM; in the experiment with expanded CD3+ T cells (numeric value), 21.1 nM.

For `COc1ncc(C(C)(N)C2CC2)c2cc(Nc3ccc4c(n3)C(C)(C)OC4=O)ncc12` (centres unmarked), the IC50 on MAP4K1 (HPK1) (setting [1]) is 0.31 to 1 nM; on MAP4K1 (HPK1) (setting [2]), 0.36 nM.

Consider `CNc1ncc(C(C)(C)N)c2cc(Nc3ccnc(N4CC[C@@H]4C)n3)ncc12`, for which the concentration for half-maximal inhibition (IC50) at MAP4K1 (HPK1) (setting [1]) is below 0.3 nM.

As for `COCC(C)(N)c1cnc(OC)c2cnc(Nc3ccc4c(n3)C(C)C(C)OC4=O)cc12` (centres unmarked), the IC50 at MAP4K1 (HPK1) (setting [1]) is below 0.3 nM; on MAP4K1 (HPK1) (setting [2]), 0.19 nM. Besides, the values for the EC50 with expanded CD3+ T cells (class designation) and in the experiment with expanded CD3+ T cells (numeric value) were below 35 nM and 6.6 nM, respectively.

As to `CNc1ncc(C(C)(C)N)c2cc(Nc3ccnc(C(C)(C)C)n3)ncc12`, the IC50 is 1.1 to 10 nM at MAP4K1 (HPK1) (setting [1]) and 1.6 nM on MAP4K1 (HPK1) (setting [2]). The EC50 with expanded CD3+ T cells (class designation) is below 35 nM; in the experiment on expanded CD3+ T cells (numeric value) it was 18.9 nM.

Turning to `C[C@@H]1c2nc(Nc3cc4c(C(C)(C)N)cnc(OCC(F)(F)F)c4cn3)ccc2C(=O)OC1(C)C`, the IC50 at MAP4K1 (HPK1) (setting [1]) is below 0.3 nM. The EC50 in the experiment on expanded CD3+ T cells (class designation) is below 35 nM; in the experiment on expanded CD3+ T cells (numeric value), 9.3 nM.

As to `CCOc1ccc(C(C)(C)NC)c2cc(Nc3ccnc(C(C)(C)F)n3)ncc12`, the IC50 at MAP4K1 (HPK1) (setting [1]) was above 10 nM.
